Earlier results in patent US20250320252A1 (The Scripps Research Institute, priority 2021, published 2025).

Details: cited from earlier work

Substance: Semaglutide
- rodent half-life: ~8 h
